Source: PubChem
ClpP mod = qHTS Assay for Activators of ClpP | purified B. subtilis ClpP, FRET peptide cleavage, 20 min | Potency, µM (top dose mostly 57.5 µM), without a hit: at the highest dose activity change, negative = active | ATP-dependent Clp protease proteolytic subunit (Bacillus subtilis (strain 168)), P80244 | 340,000 tested, 1.9% active; active means well fitted falling curve with a large enough effect; inconclusive means small, poorly fitted or top-dose-only effect; inactive means no such curve, though single readings can be large or run the other way; further: potency means the concentration at half of the fitted maximal effect; the source files actives as falling curves though it sought activators and does not explain the sign; nearly all actives have a fitted effect of over 65% in size
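FRET quenching reversal measured ClpP activation: 10 microg/mL B. subtilis ClpP at pH 8 with the FRET-FV decapeptide, read at 430 nm after 320 nm excitation. The 20-min minus 0-min signal was scaled between DMSO/no-enzyme wells and ADEP (5.8 microM final).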
rTrxR1 inhibitor = blocks rat thioredoxin reductase 1; O89049; recombinant rTrxR1, NADPH fluorescence consumption, selenite substrate; Potency, µM (titrated, usually from 114 µM), for inactives: at the top dose activity change, negative = inhibition, most hits filed as inhibitors; 390,000 tested, 1% active; AID 588453; further: potency means the concentration at half of the fitted maximal effect; on the % scale 0 is the no-effect control and ±100 the full control effect; nearly all actives have a fitted effect of over 65% in size
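Rat TrxR1 (90 nM in the dispensed reagent) was pre-reduced with 400 uM NADPH for 5 min at room temperature, then incubated with compound for 15 min. After 400 uM selenite was added, NADPH fluorescence (Ex 340/Em 450 nm) was followed for 8 min.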
TrxR1 substrate = rat thioredoxin reductase 1 substrate activity | 390,000 tested, 0.01% active | Potency, µM (series often up to 114 µM), for inactives: at the top dose activity change, negative = substrate turnover | purified TrxR1 substrate turnover, NADPH consumption readout; further: potency means the concentration at half of the fitted maximal effect; on the % scale 0 is the no-effect control and ±100 the full control effect; nearly all actives have a fitted effect of over 50% in size
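Rat TrxR1, dispensed at 90 nM, was prereduced with 400 uM NADPH (final) for 5 min at ~22 deg C, then incubated with compound 15 min before 400 uM selenite. A first-read NADPH fluorescence drop versus no-compound background flagged substrates.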
Anesthetic bind = binds horse apoferritin like a general anesthetic | apoferritin/1-aminoanthracene competitive binding, fluorescence | Potency, µM (doses to about 77.5 µM), without a hit: at the highest dose activity change, negative = displacement, actives largely listed as inhibitors | 350,000 tested, 0.074% active | AID 485281; further: potency means the concentration at half of the fitted maximal effect; on the % scale 0 is the no-effect control and ±100 the full control effect; nearly all actives have a fitted effect of over 20% in size
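Steps: apoferritin (10 uM) was premixed with half-saturated 1-AMA in PBS, compounds were pin-transferred, plates stood 10 min at room temperature, fluorescence was read at 380/535 nm, and curves were fitted with a Hill equation.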
miR-21 reporter = raises the signal of a miR-21 reporter; HeLa miR-21 FLuc reporter, luciferase, 48 h; Potency, µM (highest dose often 38.3 µM), inactives show at the highest dose reporter change, positive = more light; 340,000 tested, under 10 active; active = well fitted rising curve with a large enough effect; inconclusive = small, poorly fitted or top-dose-only effect; inactive = no such curve, though single readings can be large or run the other way;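 note: % of control where 0% means no effect; miR-21 action dims this reporter so a rising signal means less miR-21 action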
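HeLa cells endogenously expressing miR-21, stably carrying CMV-driven firefly luciferase with a downstream miR-21 binding site, 2000 cells/well. Titrations up to approximately 40 uM, 48 hours; luciferase luminescence read.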
Active calls of the source: *; ? = inconclusive; . = no result given; ! = a repeat was not active; [ ] = dose if it differs, or a comment. An excerpt weighted towards active compounds, which were near 2.5% of everything screened. Unless noted, the call rests on the fitted dose curve; in most records, active means well fitted curve in the direction sought with a large enough effect; inconclusive means small, poorly fitted or top-dose-only effect, or another doubt; inactive means no such curve, though single readings can be large; an effect the other way counts as inactive or inconclusive.

The chains behind the UniProt entries cited, without tags or fusion partners.
ATP-dependent Clp protease proteolytic subunit (Bacillus subtilis (strain 168)), P80244, UniProt P80244, whole entry, looked up: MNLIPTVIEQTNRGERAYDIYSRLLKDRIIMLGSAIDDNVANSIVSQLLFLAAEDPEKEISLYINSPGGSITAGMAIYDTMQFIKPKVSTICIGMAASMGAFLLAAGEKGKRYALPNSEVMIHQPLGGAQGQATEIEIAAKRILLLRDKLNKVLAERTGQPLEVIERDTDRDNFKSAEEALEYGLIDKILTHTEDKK

1) O=C(CN1CCCCCC1)Nc1ccc([N+](=O)[O-])cc1Cl
2) COc1cc(OC)cc(-c2cc3ccccc3c(=O)o2)c1
3) Nc1ccc(Sc2cnn(-c3ccccc3)c(=O)c2Cl)cc1
4) Cc1ccc(Sc2cnn(-c3ccccc3)c(=O)c2Cl)cc1
5) CCOc1ccc(-c2nc(C#N)c(N3CCCCCC3)o2)cc1
6) CCCOc1ccc(-c2nc(C#N)c(N3CCC(C(N)=O)CC3)o2)cc1
7) N#Cc1nc(-c2ccc(OCc3ccc(Cl)cc3)cc2)oc1N1CCC(C(N)=O)CC1
8) CCN(c1ccc(Cl)cc1)S(=O)(=O)c1nnc(NC(=O)c2ccccc2C)s1

Assay by compound	1	2	3	4	5	6	7	8
ClpP mod	10µM*	28µM*	20µM*	-2%	6%	14µM*	5µM*!	-5%
rTrxR1 inhibitor	20%[57.1 µM]	49%	-5%	4%	41%	26%	8%	-6%
TrxR1 substrate	7%[57.1 µM]	27%	-13%	3%	84%	61%	7%	-10%
Anesthetic bind	-10%	.	?	?	5%	-10%	-6%	-15%
miR-21 reporter	-3%	.	-12%	0%	-15%	-17%	0%	25%

9) O=C(NCCc1ccccc1Cl)c1ccc(Cn2c(=O)c3cccn3c3cccnc32)cc1
10) CCOC(=O)c1cc2c(=O)n3ccccc3nc2n(Cc2ccco2)c1=NC(=O)c1c(F)cccc1Cl
11) Cc1ccc(NC(=O)c2ccccc2F)nc1
12) CCOc1ccc(-n2c(=O)c3c(C)c(C(=O)N(C)C)sc3n(CC(=O)Nc3c(C)cc(C)cc3C)c2=O)cc1
13) COC(=O)Cc1nnc(SCC(=O)Nc2ccccc2)c2ccccc12
14) O=C(CSc1nnc(-c2ccc(F)cc2)c2ccccc12)Nc1ccccc1
15) COc1ccc(/C=C(/NC(=O)c2ccco2)C(=O)N2CCCCC2)cc1
16) O=C1C=C(C2OC(CO)C(O)C2O)C(=O)N1 (stereo not drawn)

Assay by compound	9	10	11	12	13	14	15	16
ClpP mod	5%	4%	16µM*	-2%	4%	0%	14µM*	-1%
rTrxR1 inhibitor	32%	?	31%	22%[57.1 µM]	50µM*	-1%	-10%	7.1µM*
TrxR1 substrate	96%	303%	88%	-5%[57.1 µM]	-6%	-2%	-9%	4%
Anesthetic bind	32%	87%	-5%	-1%	2%	-20%	-5%	.
miR-21 reporter	-15%	-1%	-26%	7%	-5%	-35%	-5%	.

17) O=C(c1ccc(CN2CCc3ccccc3C2)cc1)N1CCN(c2ccccc2)CC1
18) O=C(c1ccc(CN2CCc3ccccc3C2)cc1)N1CCc2ccccc2C1
19) O=C(Nc1c(Cl)cccc1Cl)c1cc(-c2cccc(O)c2)on1
20) O=C(CSc1ccc(-c2nc3ccccc3[nH]2)cn1)N1CCN(C(=O)c2ccco2)CC1
21) CCOC(=O)C1CCN(C(=O)CC(NS(=O)(=O)c2ccc(OC)cc2)C(C)C)CC1 (stereo not drawn)
22) Cc1cc(=O)oc2c1ccc1oc(/C(=N/O)c3ccccc3)c(C)c12
23) Cc1ccc(/C(=N\O)c2oc3c(C)c4oc(=O)cc(C)c4cc3c2C)cc1
24) CCc1ccc(NC(=O)C2CCN(S(=O)(=O)c3cccc(-c4noc(C)n4)c3)CC2)cc1

Assay by compound	17	18	19	20	21	22	23	24
ClpP mod	32µM*	5%	0%	32µM*	32µM*	?	25µM*	2%
rTrxR1 inhibitor	14%	9%[57.1 µM]	-4%	1.4µM*	17%[57.1 µM]	14%	28%[57.1 µM]	0%[57.1 µM]
TrxR1 substrate	5%	2%[57.1 µM]	-1%	37%	9%[57.1 µM]	5%	20%[57.1 µM]	-6%[57.1 µM]
Anesthetic bind	-7%	-16%	1%	-12%	-3%	-3%	-18%	-7%
miR-21 reporter	3%	-4%	-8%	21%	1%	-4%	-20%	?

25) Cc1ccc(S(=O)(=O)c2nc(-c3ccccc3Cl)oc2N(C)C)cc1
26) CN(C)c1oc(-c2ccccc2Cl)nc1P(=O)(c1ccccc1)c1ccccc1
27) CCOc1ccc2oc(=O)cc(C)c2c1
28) Cc1cc(=O)oc2cc(OC(C)C(=O)O)c(Cl)cc12 (stereo not drawn)
29) Cc1cc(C)nc(SCC(=O)Oc2ccc3oc(=O)cc(C)c3c2)n1
30) CCC(=O)Oc1ccc2oc(=O)cc(C)c2c1
31) Cc1cc(=O)oc2ccc(OC(C)C(=O)O)cc12 (stereo not drawn)
32) Cc1cc(=O)oc2cc(OC(C)C(=O)N3CCOCC3)c(Cl)cc12 (stereo not drawn)

Assay by compound	25	26	27	28	29	30	31	32
ClpP mod	-14%	20µM*	32µM*	28µM*	3%	-6%	32µM*	4%
rTrxR1 inhibitor	?	10%	37%[11.4 µM]	-29%	1µM*	10%	-14%	.
TrxR1 substrate	11%	32%	25%[57.1 µM]	53%	10%[57.1 µM]	5%	31%	.
Anesthetic bind	-11%	63%	-13%	-6%	-4%	-18%	4%	.
miR-21 reporter	-56%	1%	-16%	-4%	-16%	-8%	?	.

33) CCn1c(=O)cc(SCC(=O)NCc2ccc(F)cc2Cl)c2ccccc21
34) CCOc1ccccc1NC(=O)c1nc(SC(C)C)ncc1Cl
35) O=C(CSc1cn(CC(=O)N2CCCCC2)c2ccccc12)NCc1ccc(F)cc1
36) Cc1cc(=O)oc2cc(OCC(=O)Nc3c(C)n(C)n(-c4ccccc4)c3=O)c(Cl)cc12
37) Cc1ccc(C)c(OCC(=O)Nc2c(C)n(C)n(-c3ccccc3)c2=O)c1
38) COc1cc2c(NC3CCN(C)CC3)nc(N3CCCN(C)CC3)nc2cc1OCCCN1CCCCC1
39) NC(=O)c1ccc(NC(=O)CSc2nnc(C3CCCCC3)n2N)cc1
40) Nn1c(SCC(=O)Nc2ccc(F)c(F)c2)nnc1C1CCCCC1

Assay by compound	33	34	35	36	37	38	39	40
ClpP mod	0%	1%	-3%	32µM*	-2%	3%	2%	0%
rTrxR1 inhibitor	26%	7%	-3%	-22%	10%	-9%	-7%	5%[57.1 µM]
TrxR1 substrate	8%	-3%	-10%	37%	-5%	61%	-7%	9%[57.1 µM]
Anesthetic bind	-9%	?	6%	.	.	.	-2%	4.5µM*
miR-21 reporter	0%	6%	3%	.	.	.	3%	-5%

Sorted by length of the SMILES (descending): 4 of the compounds above
37) Cc1ccc(C)c(OCC(=O)Nc2c(C)n(C)n(-c3ccccc3)c2=O)c1
33) CCn1c(=O)cc(SCC(=O)NCc2ccc(F)cc2Cl)c2ccccc21
39) NC(=O)c1ccc(NC(=O)CSc2nnc(C3CCCCC3)n2N)cc1
40) Nn1c(SCC(=O)Nc2ccc(F)c(F)c2)nnc1C1CCCCC1

Assay by compound	37	33	39	40
ClpP mod	-2%	0%	2%	0%
rTrxR1 inhibitor	10%	26%	-7%	5%[57.1 µM]
TrxR1 substrate	-5%	8%	-7%	9%[57.1 µM]
Anesthetic bind	.	-9%	-2%	4.5µM*
miR-21 reporter	.	0%	3%	-5%

(further entries)
41) CCn1cc(S(=O)(=O)c2ccc(C)cc2)c(=O)c2cc(F)c(N3CCCCCC3)cc21
42) CCC(=O)NC(c1cccc([N+](=O)[O-])c1)c1c(OC(C)=O)ccc2ccccc12 (stereo not drawn)
43) Cc1ccc(CN2C(=O)c3ccccc3S(=O)(=O)c3ccc(C(=O)OCC4CCCO4)cc32)cc1 (stereo not drawn)
44) O=C(COc1ccc2c(c1)CCC2)Nc1ccccn1
45) Cc1cccc(NC(=O)COc2ccc3c(c2)CCC3)n1
46) COc1ccccc1-c1nnc(C2CCN(C(=O)c3cccc(C)c3)CC2)o1
47) CCCn1c(CC)nc([N+](=O)[O-])c1S(=O)(=O)c1ccccc1
48) Cc1ccc(NC(=O)c2ccc(NC(=O)C3CCCC3)cc2)c(C)c1
49) CC(C)Cc1cc(C(=O)N2N=C(C(F)F)CC2(O)C(F)F)c2ccccc2n1 (stereo not drawn)

Assay by compound	41	42	43	44	45	46	47	48	49
ClpP mod	-11%	28µM*	-7%	2%	28µM*	-11%	0%	-5%	0%
rTrxR1 inhibitor	33%	-6%	19%[57.1 µM]	5%	0%	18%	0.32µM*	-9%	4%
TrxR1 substrate	12%	-6%	-2%[57.1 µM]	2%	-9%	8%	18%	0%	0%
Anesthetic bind	-7%	-3%	-7%	.	.	-2%	-10%	.	-20%
miR-21 reporter	-1%	-3%	-3%	.	.	-10%	?	.	-3%
